The record followed here is paper PMC12471865.

The experiment has as its target Bruton's tyrosine kinase (BTK) (Homo sapiens, UniProt Q06187). Briefly: BTK degradation (DC50) in TMD-8 cells, […] h; rescued by competition with ibrutinib. The conditions noted are these: read-out: BTK degradation (DC50) in TMD-8 cells, 8 h, rescued by competition with ibrutini.

Molecules are shown by their SMILES.

Usually DC50 stands for the concentration giving 50% degradation. Take `Cc1c(C#CCNC(=O)c2ccc(CCNC(=O)CN3CCC[C@@H](n4nc(-c5ccc(Oc6ccccc6)cc5)c5c(N)ncnc54)C3)cc2)cccc1N1CCC(=O)NC1=O`: the DC50 is 14 nM.
